Measurements: PMC3684959

Target: GST-VCA
Assay: AUC

latrunculin B-bound actin (from UniProt P68135 1-377) (natural protein)
stoichiometry N: 2
